{
  "sequences": {"note": "Sequences of proteins named here, by UniProt entry; tags and fusion partners are left off. A change or cut given only in a name is not applied to a line headed by its entry.", "UniProt P43116": "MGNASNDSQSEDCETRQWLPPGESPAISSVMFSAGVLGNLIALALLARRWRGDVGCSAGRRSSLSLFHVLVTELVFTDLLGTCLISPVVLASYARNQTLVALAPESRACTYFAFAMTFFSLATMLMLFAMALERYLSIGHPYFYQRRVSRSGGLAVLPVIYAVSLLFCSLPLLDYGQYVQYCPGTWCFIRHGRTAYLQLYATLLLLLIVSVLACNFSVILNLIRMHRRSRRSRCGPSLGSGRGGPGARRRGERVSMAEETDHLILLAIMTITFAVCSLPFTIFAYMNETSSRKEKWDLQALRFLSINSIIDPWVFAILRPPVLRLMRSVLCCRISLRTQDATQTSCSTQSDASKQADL"},
  "source": "ChEMBL document CHEMBL3286257",
  "about": "“Development of second generation EP2 antagonists with high selectivity” (Eur J Med Chem, 2014)",
  "key": {"[1]": {"molecular_target": "Prostaglandin E2 receptor EP2 subtype (Homo sapiens) (UniProt P43116)", "experiment": "Antagonist activity at EP2 receptor (unknown origin) expressed in rat C6 cells assessed as inhibition of PGE2-induced response", "type": "cell-based"}, "[2]": {"system": "EP2 receptor", "experiment": "Therapeutic index, ratio of CC50 for rat C6 cells to KB for EP2 receptor (unknown origin)", "type": "cell-based", "conditions": "read-out: TI"}, "[3]": {"molecular_target": "Prostaglandin E2 receptor EP2 subtype (Homo sapiens) (UniProt P43116)", "experiment": "Competitive antagonist activity at human EP2 receptor assessed as inhibition of PGE2-induced response"}},
  "data": [
    {"smiles": "CCN(CC)c1ccc(C(=O)NCCn2ccc3ccccc32)cc1", "values": [
      {"measurement": "Kb", "setting": "[1]", "value": 0.0629, "unit": "µM"}
    ]},
    {"smiles": "Cc1cc2ccccc2n1CCNC(=O)c1ccc(C(=O)O)cc1", "values": [
      {"measurement": "Kb", "setting": "[1]", "value": 0.245, "unit": "µM"}
    ]},
    {"smiles": "Cc1[nH]c2ccccc2c1CCNC(=O)c1ccc(N2CCOCC2)cc1", "values": [
      {"measurement": "Kb", "setting": "[1]", "value": 0.0286, "unit": "µM"}
    ]},
    {"smiles": "Cc1cc2ccccc2n1CCNC(=O)c1ccc(-c2nnn[nH]2)cc1", "values": [
      {"measurement": "selectivity ratio", "setting": "[2]", "value": "> 13400"}
    ]},
    {"smiles": "COc1cc(/C=C/C(=O)NCCn2c(C)cc3ccccc32)cc(OC)c1OC", "values": [
      {"measurement": "Kb", "setting": "[3]", "value": 0.0022, "unit": "µM"}
    ]}
  ]
}
